## Curated experimental data: fraction unbound values

Source: data files of OPERA 2.9 (Mansouri et al.), github.com/kmansouri/OPERA.

The unbound fraction in human plasma runs from 0 (all bound) to 1 (all free).
Cells with "–" have no entry in this list.

| SMILES | name | fu |
|---|---|---|
| C[C@@H](c1ncncc1F)[C@](O)(Cn1cncn1)c1ccc(F)cc1F | Voriconazole | 0.4738 |
| CN(C)N=Nc1nc[nH]c1C(N)=O | Dacarbazine | 0.9883 |
| CCCCCOC(=O)Nc1nc(=O)n([C@@H]2O[C@H](C)[C@@H](O)[C@H]2O)cc1F | Capecitabine | 0.7 |
| CCCCC[C@H](O)/C=C/[C@H]1[C@H](O)CC(=O)[C@@H]1CC=CCCCC(=O)O | Dinoprostone | 0.27 |
| CO[C@@H]1[C@@H](OC(N)=O)[C@@H](O)[C@H](Oc2ccc3c(O)c(NC(=O)c4ccc(O)c(CC=C(C)C)c4)c(=O)oc3c2C)OC1(C)C | Novobiocin | 0.1 |
| Cc1nnc(NS(=O)(=O)c2ccc(N)cc2)s1 | Sulfamethizole | 0.08044 |
| CC[C@H](C)C[C@H](C)CCCCCCCCC(=O)N[C@H]1C[C@@H](O)[C@H](NCCN)NC(=O)[C@@H]2[C@@H](O)CCN2C(=O)[C@H]([C@H](O)CCN)NC(=O)C([C@H](O)[C@@H](O)c2ccc(O)cc2)NC(=O)[C@@H]2C[C@@H](O)CN2C(=O)C([C@@H](C)O)NC1=O (stereo partly specified) | Caspofungin | 0.03583 |
| Cc1cc(Nc2nc(O[C@H](C)c3ccc(F)cn3)c(C#N)nc2C)n[nH]1 | – | 0.03607 |
| CC(=O)O[C@]1(C(C)=O)CC[C@H]2[C@@H]3C=C(Cl)C4=CC(=O)[C@@H]5C[C@@H]5[C@]4(C)[C@H]3CC[C@@]21C | Cyproterone acetate | 0.0584 |
| CC[N+](CC)(CC(=O)Nc1c(C)cccc1C)Cc1ccccc1.O=C1[N-]S(=O)(=O)c2ccccc21 | Denatonium saccharide | 0.488 |
| CCCCOC(=O)[C@@H](C)Oc1ccc(Oc2ccc(C(F)(F)F)cn2)cc1 | Fluazifop-P-butyl | 0.003283 |
| COc1cc2nc(N(C)CCCNC(=O)C3CCCO3)nc(N)c2cc1OC (stereo not given) | Alfuzosin | 0.115 |
| CN1CCC(=C2c3ccccc3CCn3c(C=O)cnc32)CC1 | – | 0.4905 |
| NC(=O)N1c2ccccc2CC(O)c2ccccc21 (stereo not given) | 10-hydroxycarbazepine | 0.3775 |
| Cc1c(O)c(=O)ccn1C | Deferiprone | 0.67 |
| COc1cccc2c1C(=O)c1c(O)c3c(c(O)c1C2=O)C[C@@](O)(C(C)=O)C[C@@H]3O[C@H]1C[C@H](N)[C@H](O)[C@H](C)O1 | Daunorubicin | 0.03 |
| CCOC(=O)[C@H](CCc1ccccc1)N[C@@H](C)C(=O)N1C(=O)N(C)C[C@H]1C(=O)O | Imidapril | 0.8 |
| Cc1c(N(C)CS(=O)(=O)[O-])c(=O)n(-c2ccccc2)n1C.[Na+] | Dipyrone | 0.4 |
| O=C(N[C@@H](Cc1ccccc1)[C@@H](O)C(=O)N1C[C@@H](O)[C@@H](O)C1)c1cc2cc(Cl)ccc2[nH]1 | Ingliforib | 0.0234 |
| CN(C)CCN(C)n1cc(-c2ccccc2)c2ccccc21 | Binedaline | 0.04 |
| C[C@@H]1C[C@H]2[C@@H]3C[C@H](F)C4=CC(=O)C=C[C@]4(C)[C@H]3[C@@H](O)C[C@]2(C)[C@H]1C(=O)CO | Fluocortolone | 0.1 |
| C[n+]1ccccc1/C=N/O.[Cl-] | Pralidoxime chloride | 0.95 |
| CC(C)(C)c1cccc(C(C)(C)C)c1O | 2,6-Di-tert-butylphenol | 0.01953 |
| Nc1nc(Cl)nc2c1ncn2[C@H]1C[C@H](O)[C@@H](CO)O1 | Cladribine | 0.9386 |
| c1cc(CN2CCCNCCNCCCNCC2)ccc1CN1CCCNCCNCCCNCC1 | Plerixafor | 0.42 |
| C=CC1CS[C@@H]2[C@H](NC(=O)/C(=NO)/c3c[s]c(N)[n]3)C(=O)N2C=1C(O)=O | – | 0.35 |
| O=c1[nH]c2ccccc2n1CCCN1CCN(C(c2ccccc2)c2ccccc2)CC1 | Oxatomide | 0.09 |
| Fc1ccc(C(c2ccc(F)cc2)N2CCN(C/C=C/c3ccccc3)CC2)cc1 | Flunarizine | 0.05 |
| Fc1ccc([C@@H]2CCNC[C@H]2COc2ccc3c(c2)OCO3)cc1 | Paroxetine | 0.07672 |
| CC[C@]12CC[C@@H]3[C@H]4CC/C(/C=C4CC[C@H]3[C@@H]1CC[C@@]2(O)C#C)=NO | – | 0.03 |
| CN(C)c1cc(NC(=O)CNC(C)(C)C)c(O)c2c1C[C@H]1C[C@H]3[C@H](N(C)C)C(O)=C(C(N)=O)C(=O)[C@@]3(O)C(O)=C1C2=O | Tigecycline | 0.2 |
| NC(=O)Cn1c(=O)cc(CCN2CCN(c3nccc4sccc34)CC2)c2ccc(F)cc21 | Trelanserin | 0.0607 |
| COc1ccccc1Oc1c(NS(=O)(=O)c2ccc(C(C)C)cn2)nc(-c2ccnc(-c3nn[nH]n3)c2)nc1OCCO | Tezosentan | 0.00875 |
| CCC(C)(C)NCC(O)COc1ccccc1C(=O)CCc1ccccc1 (racemic) | – | 0.0175 |
| CCC1=C[C@@H]2C[N@](C1)Cc1c([nH]c3ccccc13)[C@@](C(=O)OC)(c1cc3c(cc1OC)N(C)[C@H]1[C@@](O)(C(=O)OC)[C@H](OC(C)=O)[C@]4(CC)C=CCN5CC[C@]31[C@@H]54)C2 | Vinorelbine | 0.69 |
| CCC(C)(C)c1cc(O)c(C(C)(C)CC)cc1O | 2,5-bis(2-methylbutan-2-yl)benzene-1,4-diol | 0.0166 |
| Nc1ccn([C@H]2CC[C@@H](CO)O2)c(=O)n1 | 2',3'-Dideoxycytidine | 0.97 |
| CC(C)CN(C[C@@H](OP(=O)(O)O)[C@H](Cc1ccccc1)NC(=O)O[C@H]1CCOC1)S(=O)(=O)c1ccc(N)cc1 | Fosamprenavir | 0.1 |
| CCCCC1=NC2(CCCC2)C(=O)N1Cc1ccc(-c2ccccc2-c2nnn[nH]2)cc1 | Irbesartan | 0.1 |
| COc1cc(C2c3cc4c(cc3C(OC3OC5COC(C)OC5C(O)C3N(C)C)C3COC(=O)C23)OCO4)cc(OC)c1O.Cl (stereo not given) | NK 611 | 0.0125 |
| CCN(CC)CCCN(c1ccccc1)C1Cc2ccccc2C1 | Aprindine | 0.05 |
| C=C(CC(=O)c1ccc(-c2ccccc2Cl)cc1)C(=O)O | Itanoxone | 0.0175 |
| CCc1cccc2c3c([nH]c12)C(CC)(CC(=O)O)OCC3 (stereo not given) | Etodolac | 0.00875 |
| CCOC(=O)c1c(N)sc2c1CCN(Cc1ccccc1)C2 | Tinoridine | 0.08 |
| C/C(/C[C@@H]1OC[C@H](C[C@@H]2O[C@H]2[C@@H](C)[C@H](C)O)[C@@H](O)[C@H]1O)=CC(=O)OCCCCCCCCC(O)=O | – | 0.04 |
| N#CSCSc1nc2ccccc2s1 | 2-(thiocyanomethylthio)benzothiazole | 0.331 |
| COCCOc1cnc(NS(=O)(=O)c2ccccc2)nc1 | Glycodiazine | 0.2 |
| OCC(CO)N[C@H]1C[C@](O)(CO)[C@@H](O)[C@H](O)[C@H]1O | Voglibose | 0.86 |
| Cc1ncc(C[n+]2csc(CCO)c2C)c(N)n1.[Cl-] | Thiamine | 0.08 |
| Nc1cccc2c(N)cccc12 | 1,5-Naphthalenediamine | 0.6333 |
| CCCc1ccc(O)c(OC)c1 | 2-methoxy-4-propylphenol | 0.0707 |
| C[C@H]1[C@@H](OC(=O)CCC(=O)O)O[C@@H]2O[C@@]3(C)CC[C@H]4[C@H](C)CC[C@@H]1[C@@]24OO3 | Artesunate | 0.25 |
| C[C@@H]1C[C@H]2[C@@H]3CCC4=CC(=O)C=C[C@]4(C)[C@@]3(Cl)[C@@H](O)C[C@]2(C)[C@@]1(O)C(=O)CCl | Mometasone | 0.015 |

Again, the 8 entries with the lowest fu:

{"smiles": "CCCCOC(=O)[C@@H](C)Oc1ccc(Oc2ccc(C(F)(F)F)cn2)cc1", "name": "Fluazifop-P-butyl", "fu": "0.003283"}
{"smiles": "COc1ccccc1Oc1c(NS(=O)(=O)c2ccc(C(C)C)cn2)nc(-c2ccnc(-c3nn[nH]n3)c2)nc1OCCO", "name": "Tezosentan", "fu": "0.00875"}
{"smiles": "CCc1cccc2c3c([nH]c12)C(CC)(CC(=O)O)OCC3", "stereo": "stereo not given", "name": "Etodolac", "fu": "0.00875"}
{"smiles": "COc1cc(C2c3cc4c(cc3C(OC3OC5COC(C)OC5C(O)C3N(C)C)C3COC(=O)C23)OCO4)cc(OC)c1O.Cl", "stereo": "stereo not given", "name": "NK 611", "fu": "0.0125"}
{"smiles": "C[C@@H]1C[C@H]2[C@@H]3CCC4=CC(=O)C=C[C@]4(C)[C@@]3(Cl)[C@@H](O)C[C@]2(C)[C@@]1(O)C(=O)CCl", "name": "Mometasone", "fu": "0.015"}
{"smiles": "CCC(C)(C)c1cc(O)c(C(C)(C)CC)cc1O", "name": "2,5-bis(2-methylbutan-2-yl)benzene-1,4-diol", "fu": "0.0166"}
{"smiles": "CCC(C)(C)NCC(O)COc1ccccc1C(=O)CCc1ccccc1", "stereo": "racemic", "fu": "0.0175"}
{"smiles": "C=C(CC(=O)c1ccc(-c2ccccc2Cl)cc1)C(=O)O", "name": "Itanoxone", "fu": "0.0175"}

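The OPERA project collected these measurements from public sources as training and test data for property models. The files give a single number for a compound and property, which may rest on several reports. Method and conditions are not stated for these values. The measured form (salt, isomer or mixture) is not always the one drawn. Some entries may be limits or estimates that an upstream database listed as plain numbers.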